The target in the assay is SNAP tagged AT2R (angiotensin II type 2 receptor) (UniProt P50052). As to the kind of experiment: AlphaScreen or HTRF; saturation binding: increasing concentrations of DY647-AngII on HEK293 cells overexpressing SNAP-AT2R labeled with Lumi4-Tb; Tag-lite labeling buffer; 3 h in the dark at 4 °C; HTRF ratio 665/620 nm. In general terms: Alpha assays give light when donor and acceptor beads are brought close together.

The chains behind the UniProt entries cited, without tags or fusion partners. Where a name states a change or a piece, a line headed by the entry shows the natural chain unless it says otherwise.
UniProt P50052: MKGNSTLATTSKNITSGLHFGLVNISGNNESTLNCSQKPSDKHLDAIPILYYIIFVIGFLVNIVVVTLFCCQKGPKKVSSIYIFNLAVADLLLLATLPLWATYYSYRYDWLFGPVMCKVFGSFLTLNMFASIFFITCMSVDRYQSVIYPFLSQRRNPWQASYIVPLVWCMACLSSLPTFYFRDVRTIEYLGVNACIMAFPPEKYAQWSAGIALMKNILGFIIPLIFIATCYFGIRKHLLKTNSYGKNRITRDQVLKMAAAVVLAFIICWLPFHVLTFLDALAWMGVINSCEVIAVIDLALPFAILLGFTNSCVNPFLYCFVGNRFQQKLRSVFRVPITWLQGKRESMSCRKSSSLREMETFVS

Here are results for one substance from article PMC5535174.

As a reminder, the Kd is the constant that tells how readily two partners part at equilibrium. With “fluorescently labelled AngII (DY647-AngII) (peptide)”, the Kd was found to be 3 nM.
